Source: PubChem BioAssay AID493056 (National Center for Advancing Translational Sciences (NCATS), 2011)
“And” between values parts separate entries of the source, which are not always exact repeats. Identical values can stand only once. The list shows a part of the results, in another mix than the full data. The source made the active and inactive calls. Rule as the data show it: active = enhancement above about 30%; inactive = the rest.

Chains of the proteins cited; added tags and fusions are not shown. Lines headed by an entry give the natural chain unless they say otherwise; changes in a name come on top.
UniProt P34981: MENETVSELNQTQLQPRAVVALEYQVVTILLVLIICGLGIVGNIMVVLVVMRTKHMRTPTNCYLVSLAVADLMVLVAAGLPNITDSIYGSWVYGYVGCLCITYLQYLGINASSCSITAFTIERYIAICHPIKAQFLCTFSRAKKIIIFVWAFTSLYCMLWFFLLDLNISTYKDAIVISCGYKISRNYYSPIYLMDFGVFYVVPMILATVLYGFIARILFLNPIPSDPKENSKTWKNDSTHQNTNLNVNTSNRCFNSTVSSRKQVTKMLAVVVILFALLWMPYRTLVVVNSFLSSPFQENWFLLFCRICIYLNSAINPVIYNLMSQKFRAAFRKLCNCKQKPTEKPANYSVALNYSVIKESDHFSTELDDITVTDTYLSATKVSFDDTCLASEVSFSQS

target: Thyrotropin-releasing hormone receptor (Homo sapiens) (UniProt P34981); assay: qHTS for Small Molecule Agonists and Allosteric Enhancers of Human TRH Receptor: Primary Screen for Enhancers; details: TRHR cells, fluo-8 calcium fluorescence, EC20 TRH enhancement; at 2 µM; stronger effect = higher value; also: 0% is about no effect
In short: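 Enhancer read-out: after compound pinning and an initial kinetic agonist-mode read, an EC20 of TRH (10 nM final) was injected and fluo-8 calcium signal (Ex 480/Em 530) followed at 1 s/cycle for 100 cycles in TRHR-expressing cells.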

| SMILES | enhancement |
| --- | --- |
| O=[N+]([O-])c1cc([N+](=O)[O-])c(CCN2CCOCC2)c([N+](=O)[O-])c1 | inactive: 11.3% |
| CCN(N=Nc1nonc1N)c1nonc1N | inactive: -2.72% |
| Nc1cccc2ccc([As](=O)(O)O)cc12 | inactive: -3.02% |
| O=C(O)c1ccccc1[As](=O)(O)O | inactive: 10.1% |
| CC(=O)Nc1ccc([As](=O)(O)O)cc1 | inactive: 5.28% |
| O=P(Nc1nc2ccc(Cl)cc2s1)(c1ccccc1)c1ccccc1 | inactive: -5.63% |
| Cc1ccc(NP(=O)(Oc2ccccc2F)Oc2ccccc2F)nc1 | inactive: -0.726% |
| CCOP(=O)(Nc1ccccc1)OCC | inactive: 25% and inactive: -1.83% |
| Cc1cc(SC(NC(=O)c2ccc(F)cc2)C(Cl)(Cl)Cl)ncn1 (stereo not drawn) | inactive: 0.912% |
| Cc1ccc(OP(=O)(Nc2ccccn2)Oc2ccc(C)cc2)cc1 | inactive: 3.4% |
| CC(=O)NC(SC(=S)N(CC(C)C)CC(C)C)C(Cl)(Cl)Cl (stereo not drawn) | inactive: -4.67% |
| COC(=O)c1cc2c(s1)N=C(c1ccccc1)N(C)P2(=O)N1CCOCC1 (stereo not drawn) | inactive: 0.526% |
| O=C(OC1CN2CCC1CC2)c1ccccc1 (stereo not drawn) | inactive: 7.6% |
| CN(C)C(=O)Oc1noc2ccccc12 | inactive: -3.59% |
| O=c1c2cc([N+](=O)[O-])ccc2[nH]c2c([N+](=O)[O-])cc([N+](=O)[O-])cc12 | inactive: 5.74% |
| Cc1ccccc1OP(=O)(Nc1ccccn1)Oc1ccccc1C | inactive: -5.46% |
| O=C(NC1CCS(=O)(=O)C1)NP(=S)(Oc1ccccc1)Oc1ccccc1 (stereo not drawn) | inactive: 1.09% |
| CCNC(=S)/N=C(\N)N[N+](=O)[O-] | inactive: -0.899% |
| CCOC(=O)NC(Sc1ccccc1)C(Cl)(Cl)Cl (stereo not drawn) | inactive: -4.72% |
| Cc1ccc(NP(=O)(Oc2cccc(C)c2)Oc2cccc(C)c2)nc1 | inactive: -1.02% |
| c1ccc(-c2nn[nH]n2)c(-c2nn[nH]n2)c1 | inactive: 2.85% |
| CC(=O)c1ccc(N2CC2c2ccncc2)cc1 (stereo not drawn) | inactive: -2.96% |

| SMILES | enhancement |
| --- | --- |
| C[C@@H]1C=CCP(=O)(Oc2ccccc2)O1 (stereo partly drawn) | inactive: 1.41% |
| C[C@H]1OP(=O)(Oc2ccccc2)C[C@@H]2O[C@@H]21 (stereo partly drawn) | inactive: 11.7% |
| Cc1ccccc1CN(C)C(=O)COC(=O)C(O)(c1ccccc1)c1ccccc1 | inactive: 1.15% |
| CC(=O)Nc1ccc(Oc2c([N+](=O)[O-])cc([N+](=O)[O-])cc2[N+](=O)[O-])cc1 | inactive: -1.3% |
| CC(=O)Nc1ccc([As](=O)(O)O)c(O)c1 | inactive: -3.82% |
| O=P1(Nc2nc3ccc(Cl)cc3s2)COc2ccccc2O1 (stereo not drawn) | inactive: 3.02% |
| CC(C)(C)C(=O)NC(Sc1ccccc1)C(Cl)(Cl)Cl (stereo not drawn) | inactive: 3.77% |
| O=P(Nc1nccs1)(c1ccccc1)c1ccccc1 | inactive: -11.8% |
| CC(C)C(=O)NC(Sc1ccccc1)C(Cl)(Cl)Cl (stereo not drawn) | inactive: -1.2% |
| c1nnnn1CCn1cnnn1 | inactive: 16.2% |
| O=[N+]([O-])c1ncn(CCn2cnc([N+](=O)[O-])n2)n1 | inactive: 0.487% |
| CC(=O)NC(SC(=S)N(C)C)C(Cl)(Cl)Cl (stereo not drawn) | inactive: 5.8% |
| O=[N+]([O-])c1ccc(O)c(/C=N/Nc2ccc([N+](=O)[O-])cc2[N+](=O)[O-])c1 | inactive: -6.35% |
| O=[As](O)(c1ccccc1)c1ccc(O)cc1 | inactive: 2.42% |
| Nc1ccc([As](=O)(O)c2ccc([N+](=O)[O-])cc2)cc1 | inactive: -0.347% |
| C(Cc1nn[nH]n1)Cc1nn[nH]n1 | inactive: -2.77% |
| O=C(OC1CN2CCC1CC2)c1cccc(Cl)c1 (stereo not drawn) | inactive: -0.0857% |
| CN(C)C1(CNC(=O)c2ccc(Cl)c(S(N)(=O)=O)c2)CCCCC1 | inactive: 1.18% |
| O=P(Nc1ccccn1)(c1ccc(Br)cc1)c1ccc(Br)cc1 | inactive: 0.298% |
| C[C@H]1OP(=O)(Oc2ccccc2)[C@H](O)[C@H](O)[C@H]1N=[N+]=[N-] (stereo partly drawn) | inactive: -4.87% |
| O=P(Nc1nc2ccccc2s1)(c1ccccc1)c1ccccc1 | inactive: -0.504% |
